Experimental findings from ChEMBL document CHEMBL1126557, “Novel antiasthmatic agents with dual activities of thromboxane A2 synthetase inhibition and bronchodilation. 2. 4-(3-Pyridyl)-1(2H)-phthalazinones” (J Med Chem, 1993) are described below.

The test system of the experiment is Thromboxane-A synthase (Oryctolagus cuniculus). The experiment in a line: Tested in vitro against rabbit thromboxane A2 synthetase (TXA2) at 1 uM.

Take `Cn1nc(-c2cncs2)c2ccccc2c1=O`: the inhibition – broadly, the relative decrease from the control value, in per cent – worked out at 55%.
